# Reported properties for industrial, environmental and drug-like chemicals

Melting points are in °C. Boiling points are in °C, nominally at 760 mmHg. logP is the log10 of the octanol-water partition coefficient; higher is more lipophilic. Water solubility is log10 of mol/L, nominally at 25 °C; higher is more soluble. Vapor pressures (log10 mmHg) refer to near room temperature, 15 to 30 °C; higher is more volatile.

- C=C(C)C(=O)OCCCCCCOC(=O)C(=C)C [1,6-Hexanediol dimethacrylate]: melting point -0.445 °C; logP (octanol/water) 4.08; log S -4.044 (log10 mol/L)
- CC(=O)[C@@]1(O)CC[C@H]2[C@@H]3C=CC4=CC(=O)C=C[C@]4(C)[C@H]3CC[C@@]21C [17-Hydroxy-1,4,6-pregnatriene-3,20-dione]: logP (octanol/water) 2.23; log S -4.213 (log10 mol/L)
- NC(=O)c1ccc(NC(=O)c2ccc([N+](=O)[O-])cc2)cc1 [N-(4-(Aminocarbonyl)phenyl)-4-nitrobenzamide]: melting point 321 °C; logP (octanol/water) 1.45
- CCCC(=O)NC(C)C(=O)O (stereo not given) [N-(1-Oxobutyl)alanine]: melting point 92.3 °C; logP (octanol/water) 0.965
- Nc1cc(S(=O)(=O)O)ccc1S(=O)(=O)O [2-Aminobenzene-1,4-disulfonic acid]: logP (octanol/water) -0.886; log S -1.812 (log10 mol/L)
- CC(CNC1CCCCC1)OC(=O)c1ccccc1 (stereo not given) [Hexylcaine]: logP (octanol/water) 3.9; log S -4.43 (log10 mol/L)
- C=C(C)C(=O)OC1CCC(C(C)(C)C)CC1 (stereo not given) [4-(1,1-Dimethylethyl)cyclohexyl methacrylate]: log S -6.749 (log10 mol/L); log vapor pressure -1.666 (log10 mmHg)
- CC(C)C(=O)OCc1ccccc1 [Benzyl 2-methylpropanoate]: melting point -35.43 °C; logP (octanol/water) 2.99; log S -2.256 (log10 mol/L)
- CCOC(=O)C(C)C(Br)CBr (stereo not given) [Ethyl 3,4-dibromo-2-methylbutyrate]: logP (octanol/water) 3; log S -2.868 (log10 mol/L); log vapor pressure -2.28 (log10 mmHg)
- CC(C)=CC(C)(C)CC(C)(C)C [Isobutene trimer]: melting point -76 °C; log S -4.846 (log10 mol/L)
- CC(C(=O)O)c1ccc(C(=O)c2cccs2)cc1 (stereo not given) [Suprofen]: logP (octanol/water) 2.2; log S -3.79 (log10 mol/L)
- COc1ccccc1NC(=O)C(N=Nc1ccccc1C(=O)O)C(C)=O (stereo not given): logP (octanol/water) 2.01; log S -4.228 (log10 mol/L)
- CCCC(C)=NO [2-Pentanone oxime]: bp 168 °C; log vapor pressure 0.205 (log10 mmHg)
- OCCC(F)(F)C(F)(F)C(F)(F)C(F)(F)C(F)(F)C(F)(F)C(F)(F)C(F)(F)C(F)(F)C(F)(F)F [10:2 Fluorotelomer alcohol]: bp 228 °C; log S -7.395 (log10 mol/L)
- CC(=O)Nc1cccc(Nc2cc(S(=O)(=O)[O-])c(N)c3c2C(=O)c2ccccc2C3=O)c1.[Na+] [C.I. Acid Blue 324]: logP (octanol/water) 1.6; log S -4.418 (log10 mol/L)
- CCOC(=O)CC(C)CC(C)(C)C (stereo not given) [Ethyl 3,5,5-trimethylhexanoate]: logP (octanol/water) 4.59; log S -3.823 (log10 mol/L); log vapor pressure -0.289 (log10 mmHg)
- Nc1c(OCCCCCCO)cc(O)c2c1C(=O)c1ccccc1C2=O: melting point 157 °C; logP (octanol/water) 4.5; log S -6.228 (log10 mol/L)
- CC(C=O)Cc1ccc(C(C)C)cc1 (stereo not given) [Cyclamen aldehyde]: melting point -16.6 °C; log S -3.46 (log10 mol/L); log vapor pressure -2.648 (log10 mmHg)
- CC1=CC(C)OC(C(C)c2ccccc2)C1 (stereo not given): logP (octanol/water) 3.9; log S -4.08 (log10 mol/L); log vapor pressure -0.678 (log10 mmHg)
- CN1CCCC(CC2c3ccccc3Sc3ccccc32)C1 (stereo not given) [Metixene]: logP (octanol/water) 4.7; log S -6.482 (log10 mol/L)
- CCn1cc(C(=O)O)c(=O)c2ccc(-c3ccncc3)cc21 [Rosoxacin]: logP (octanol/water) 3; log S -3.46 (log10 mol/L)

2 of these entries, quoted again:

* CC(=O)[C@@]1(O)CC[C@H]2[C@@H]3C=CC4=CC(=O)C=C[C@]4(C)[C@H]3CC[C@@]21C [17-Hydroxy-1,4,6-pregnatriene-3,20-dione]: logP (octanol/water) 2.23; log S -4.213 (log10 mol/L)
* CC(C)C(=O)OCc1ccccc1 [Benzyl 2-methylpropanoate]: melting point -35.43 °C; logP (octanol/water) 2.99; log S -2.256 (log10 mol/L)

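OPERA's authors assembled the values from existing databases and did not measure them anew. The files give a single number for a compound and property, which may rest on several reports. Method, purity and exact conditions of the single measurements are not given. The measured form (salt, isomer or mixture) is not always the one drawn. Some entries may be limits or estimates that an upstream database listed as plain numbers.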

Values as listed in the OPERA 2.9 repository of K. Mansouri.